Data as given in US8114968.

By UniProt entry, the sequences of proteins in these tests, tags left out. Residues count along the entry.
UniProt P39900, 106-470 limits assumed: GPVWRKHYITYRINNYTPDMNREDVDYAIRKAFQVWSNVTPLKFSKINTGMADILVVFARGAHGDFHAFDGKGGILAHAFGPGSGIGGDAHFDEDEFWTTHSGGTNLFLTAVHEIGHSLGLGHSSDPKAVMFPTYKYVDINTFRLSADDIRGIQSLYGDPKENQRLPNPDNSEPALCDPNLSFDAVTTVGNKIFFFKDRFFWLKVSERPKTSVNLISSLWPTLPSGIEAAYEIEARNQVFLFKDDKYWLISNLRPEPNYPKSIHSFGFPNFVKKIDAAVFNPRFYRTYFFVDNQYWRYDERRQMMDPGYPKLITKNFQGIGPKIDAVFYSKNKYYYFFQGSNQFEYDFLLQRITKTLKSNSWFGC

Target: human MMP-12 (UniProt P39900)
Test: cell-based or functional assay

Question: For 539B-M0006-B10 (Fab), which % of activity left with 100 nM in assay 04 Oct. 2006 is on record?
Answer: 68.9%

Question: And the % of activity left with 100 nM in assay 29 Aug. 2006?
Answer: 65.5%
